Experimental data reported in article PMC10527924 (Toxicology in vitro : an international journal published in …, 2023).

Test system: excised human skin (EHS)

Structure (SMILES): C[C@]12CC[C@H]3[C@@H](CCC4=CC(=O)CC[C@@]43C)[C@@H]1CC[C@@H]2O [testosterone]
- mass distribution at 6 h post-dosing: most compound remained in the donor compartment
